Earlier results on one molecule are cited in paper PMC4054929 (Bioorganic & medicinal chemistry, 2014).

Each structure is given as a SMILES string. pIC50: −log10 of the molar value.

The data set concerns PDE10A. The note with it: affinity of papaverine for PDE10A; cited from earlier work.

As to `COc1ccc(Cc2nccc3cc(OC)c(OC)cc23)cc1OC` [papaverine, reference compound], the pIC50 (as a rule, the IC50 on a negative log10 scale, so that one unit is a factor of ten) was 7.44.
